The values below come from ChEMBL document CHEMBL2218924, “A broad activity screen in support of a chemogenomic map for kinase signalling research and drug discovery” (Biochem J, 2013).

Sequences of proteins named here, by UniProt entry; tags and fusion partners are left off. A change or cut given only in a name is not applied to a line headed by its entry.
UniProt Q06187: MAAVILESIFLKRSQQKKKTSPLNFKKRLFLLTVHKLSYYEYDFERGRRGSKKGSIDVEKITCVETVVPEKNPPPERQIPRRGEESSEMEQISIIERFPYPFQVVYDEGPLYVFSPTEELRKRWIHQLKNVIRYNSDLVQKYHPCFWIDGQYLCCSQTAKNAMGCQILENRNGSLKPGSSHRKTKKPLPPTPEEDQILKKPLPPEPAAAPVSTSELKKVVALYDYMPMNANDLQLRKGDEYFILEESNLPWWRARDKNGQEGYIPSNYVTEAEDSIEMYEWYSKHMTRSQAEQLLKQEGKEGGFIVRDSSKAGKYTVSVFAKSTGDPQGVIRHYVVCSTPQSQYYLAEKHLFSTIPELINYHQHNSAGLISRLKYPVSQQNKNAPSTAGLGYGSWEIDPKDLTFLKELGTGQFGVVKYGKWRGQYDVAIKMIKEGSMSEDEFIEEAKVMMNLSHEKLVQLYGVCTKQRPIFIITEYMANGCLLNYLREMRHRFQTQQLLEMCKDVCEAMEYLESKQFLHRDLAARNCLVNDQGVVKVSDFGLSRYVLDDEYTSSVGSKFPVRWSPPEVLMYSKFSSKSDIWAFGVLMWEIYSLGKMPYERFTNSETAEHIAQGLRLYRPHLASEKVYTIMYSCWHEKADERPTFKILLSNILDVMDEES
UniProt P24864, whole entry, looked up: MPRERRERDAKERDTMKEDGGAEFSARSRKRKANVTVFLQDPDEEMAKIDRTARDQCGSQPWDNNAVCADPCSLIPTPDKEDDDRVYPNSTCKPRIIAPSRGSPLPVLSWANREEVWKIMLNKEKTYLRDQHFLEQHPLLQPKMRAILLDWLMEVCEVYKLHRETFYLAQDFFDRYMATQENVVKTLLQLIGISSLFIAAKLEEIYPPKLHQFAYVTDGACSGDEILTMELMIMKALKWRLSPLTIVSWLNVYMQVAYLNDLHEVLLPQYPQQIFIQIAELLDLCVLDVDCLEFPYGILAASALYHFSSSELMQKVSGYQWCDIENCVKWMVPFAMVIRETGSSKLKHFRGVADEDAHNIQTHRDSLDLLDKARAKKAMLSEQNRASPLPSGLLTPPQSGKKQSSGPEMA
UniProt O96020, whole entry, looked up: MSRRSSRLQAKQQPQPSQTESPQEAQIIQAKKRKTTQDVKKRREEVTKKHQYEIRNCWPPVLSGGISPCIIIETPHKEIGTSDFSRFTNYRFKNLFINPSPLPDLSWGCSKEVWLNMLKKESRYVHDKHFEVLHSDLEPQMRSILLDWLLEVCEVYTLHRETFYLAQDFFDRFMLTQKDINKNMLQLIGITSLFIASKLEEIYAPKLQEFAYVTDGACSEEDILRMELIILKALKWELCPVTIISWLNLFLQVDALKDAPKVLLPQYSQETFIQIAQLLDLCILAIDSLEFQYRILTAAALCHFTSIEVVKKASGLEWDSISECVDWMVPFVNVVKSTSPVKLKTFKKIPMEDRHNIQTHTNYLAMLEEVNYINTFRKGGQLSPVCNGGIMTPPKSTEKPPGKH
UniProt Q00526: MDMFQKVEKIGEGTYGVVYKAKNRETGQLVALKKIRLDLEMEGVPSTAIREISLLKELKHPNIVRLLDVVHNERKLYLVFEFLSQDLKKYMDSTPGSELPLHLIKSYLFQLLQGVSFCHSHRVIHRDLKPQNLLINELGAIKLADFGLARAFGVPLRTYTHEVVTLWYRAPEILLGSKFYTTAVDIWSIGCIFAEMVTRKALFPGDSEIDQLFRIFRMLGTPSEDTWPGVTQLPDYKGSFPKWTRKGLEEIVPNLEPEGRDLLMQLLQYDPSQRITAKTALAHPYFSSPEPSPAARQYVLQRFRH
UniProt P41240: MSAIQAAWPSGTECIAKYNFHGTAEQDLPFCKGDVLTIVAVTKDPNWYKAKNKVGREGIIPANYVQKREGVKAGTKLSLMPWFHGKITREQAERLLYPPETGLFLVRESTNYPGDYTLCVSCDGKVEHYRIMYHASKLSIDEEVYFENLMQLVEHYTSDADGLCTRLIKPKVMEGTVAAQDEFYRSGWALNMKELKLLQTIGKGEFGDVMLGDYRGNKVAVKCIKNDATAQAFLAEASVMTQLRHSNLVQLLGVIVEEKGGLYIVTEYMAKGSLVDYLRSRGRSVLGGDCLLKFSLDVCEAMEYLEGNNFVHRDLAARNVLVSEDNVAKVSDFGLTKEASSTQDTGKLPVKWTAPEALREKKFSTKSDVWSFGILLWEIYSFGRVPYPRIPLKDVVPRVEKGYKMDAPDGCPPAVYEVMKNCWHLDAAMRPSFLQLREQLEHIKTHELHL
UniProt P54756, whole entry: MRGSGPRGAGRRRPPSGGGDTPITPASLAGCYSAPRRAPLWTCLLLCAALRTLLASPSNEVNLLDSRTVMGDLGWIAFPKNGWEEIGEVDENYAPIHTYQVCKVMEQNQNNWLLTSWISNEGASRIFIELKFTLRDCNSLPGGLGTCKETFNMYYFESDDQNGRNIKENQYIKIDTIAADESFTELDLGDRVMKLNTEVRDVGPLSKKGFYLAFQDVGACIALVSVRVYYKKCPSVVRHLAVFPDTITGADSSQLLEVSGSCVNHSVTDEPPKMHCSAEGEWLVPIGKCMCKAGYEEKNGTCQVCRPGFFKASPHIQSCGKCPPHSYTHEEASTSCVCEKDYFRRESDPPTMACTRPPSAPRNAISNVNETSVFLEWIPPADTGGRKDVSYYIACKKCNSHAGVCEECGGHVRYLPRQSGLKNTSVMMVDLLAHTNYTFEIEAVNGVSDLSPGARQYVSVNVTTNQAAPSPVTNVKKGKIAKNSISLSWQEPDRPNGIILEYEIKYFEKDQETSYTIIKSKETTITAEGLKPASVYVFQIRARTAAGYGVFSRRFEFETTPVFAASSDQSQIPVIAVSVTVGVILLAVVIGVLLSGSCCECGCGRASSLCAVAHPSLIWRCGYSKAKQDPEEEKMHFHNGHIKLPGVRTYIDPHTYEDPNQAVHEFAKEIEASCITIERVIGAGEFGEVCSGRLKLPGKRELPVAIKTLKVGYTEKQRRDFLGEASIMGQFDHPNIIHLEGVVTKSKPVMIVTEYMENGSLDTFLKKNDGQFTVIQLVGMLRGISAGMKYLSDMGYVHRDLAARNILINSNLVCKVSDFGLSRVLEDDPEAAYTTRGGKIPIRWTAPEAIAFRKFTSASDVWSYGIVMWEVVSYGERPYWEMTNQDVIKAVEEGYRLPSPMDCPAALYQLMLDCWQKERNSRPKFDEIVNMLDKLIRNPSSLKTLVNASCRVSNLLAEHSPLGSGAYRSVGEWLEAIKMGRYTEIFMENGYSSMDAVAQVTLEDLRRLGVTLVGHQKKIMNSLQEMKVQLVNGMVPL
UniProt P22455, whole entry, looked up: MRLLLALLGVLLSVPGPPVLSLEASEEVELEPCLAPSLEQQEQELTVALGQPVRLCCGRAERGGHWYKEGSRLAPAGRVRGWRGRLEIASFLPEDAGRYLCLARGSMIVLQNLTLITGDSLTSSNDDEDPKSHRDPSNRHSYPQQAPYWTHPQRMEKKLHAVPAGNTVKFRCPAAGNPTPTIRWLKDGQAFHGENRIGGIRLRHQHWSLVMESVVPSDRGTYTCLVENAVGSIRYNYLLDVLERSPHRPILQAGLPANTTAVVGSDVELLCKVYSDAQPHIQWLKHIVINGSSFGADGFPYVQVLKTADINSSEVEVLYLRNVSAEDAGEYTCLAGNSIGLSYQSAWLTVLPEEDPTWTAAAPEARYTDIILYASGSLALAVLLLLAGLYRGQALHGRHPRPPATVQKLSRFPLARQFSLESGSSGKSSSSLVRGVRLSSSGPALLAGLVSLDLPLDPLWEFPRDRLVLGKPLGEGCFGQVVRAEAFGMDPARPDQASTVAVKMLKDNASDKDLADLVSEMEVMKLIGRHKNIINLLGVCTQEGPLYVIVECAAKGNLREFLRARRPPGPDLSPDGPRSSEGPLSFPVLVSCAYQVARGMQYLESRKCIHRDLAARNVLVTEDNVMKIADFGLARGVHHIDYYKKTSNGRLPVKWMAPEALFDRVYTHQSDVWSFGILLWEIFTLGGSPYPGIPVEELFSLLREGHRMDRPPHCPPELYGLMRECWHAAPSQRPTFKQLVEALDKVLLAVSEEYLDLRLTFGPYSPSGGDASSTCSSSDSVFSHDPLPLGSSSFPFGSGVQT
UniProt P49840: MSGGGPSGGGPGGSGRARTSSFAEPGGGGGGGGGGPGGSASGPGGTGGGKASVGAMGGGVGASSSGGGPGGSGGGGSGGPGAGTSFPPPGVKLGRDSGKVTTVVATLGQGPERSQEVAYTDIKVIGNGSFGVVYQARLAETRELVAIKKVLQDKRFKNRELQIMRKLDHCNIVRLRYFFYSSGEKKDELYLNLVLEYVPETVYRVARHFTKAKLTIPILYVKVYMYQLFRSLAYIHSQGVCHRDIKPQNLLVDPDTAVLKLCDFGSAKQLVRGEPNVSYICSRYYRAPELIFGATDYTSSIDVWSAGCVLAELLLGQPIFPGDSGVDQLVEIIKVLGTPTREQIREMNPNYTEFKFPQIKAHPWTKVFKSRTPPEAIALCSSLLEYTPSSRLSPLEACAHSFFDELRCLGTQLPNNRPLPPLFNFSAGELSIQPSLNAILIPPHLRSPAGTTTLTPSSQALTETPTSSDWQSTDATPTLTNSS
UniProt P11309, whole entry, looked up: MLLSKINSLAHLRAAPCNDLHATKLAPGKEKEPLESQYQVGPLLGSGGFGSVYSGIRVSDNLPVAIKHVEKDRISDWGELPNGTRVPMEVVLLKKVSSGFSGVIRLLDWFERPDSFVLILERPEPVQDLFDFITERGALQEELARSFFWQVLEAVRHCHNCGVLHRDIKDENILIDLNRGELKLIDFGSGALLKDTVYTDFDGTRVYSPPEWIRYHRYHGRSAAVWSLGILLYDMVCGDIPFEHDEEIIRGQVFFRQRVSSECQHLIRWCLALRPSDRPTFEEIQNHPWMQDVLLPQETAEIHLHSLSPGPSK
UniProt O15264: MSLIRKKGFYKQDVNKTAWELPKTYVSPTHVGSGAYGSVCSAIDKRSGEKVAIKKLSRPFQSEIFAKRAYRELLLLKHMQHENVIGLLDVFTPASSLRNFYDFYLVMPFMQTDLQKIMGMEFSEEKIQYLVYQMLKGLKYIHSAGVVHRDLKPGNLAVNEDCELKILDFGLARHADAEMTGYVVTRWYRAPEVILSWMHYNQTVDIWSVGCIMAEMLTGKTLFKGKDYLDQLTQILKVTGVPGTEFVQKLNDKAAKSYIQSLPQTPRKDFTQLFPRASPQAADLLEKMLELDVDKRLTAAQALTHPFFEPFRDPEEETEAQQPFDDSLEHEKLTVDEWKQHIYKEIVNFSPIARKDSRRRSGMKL
UniProt P31749: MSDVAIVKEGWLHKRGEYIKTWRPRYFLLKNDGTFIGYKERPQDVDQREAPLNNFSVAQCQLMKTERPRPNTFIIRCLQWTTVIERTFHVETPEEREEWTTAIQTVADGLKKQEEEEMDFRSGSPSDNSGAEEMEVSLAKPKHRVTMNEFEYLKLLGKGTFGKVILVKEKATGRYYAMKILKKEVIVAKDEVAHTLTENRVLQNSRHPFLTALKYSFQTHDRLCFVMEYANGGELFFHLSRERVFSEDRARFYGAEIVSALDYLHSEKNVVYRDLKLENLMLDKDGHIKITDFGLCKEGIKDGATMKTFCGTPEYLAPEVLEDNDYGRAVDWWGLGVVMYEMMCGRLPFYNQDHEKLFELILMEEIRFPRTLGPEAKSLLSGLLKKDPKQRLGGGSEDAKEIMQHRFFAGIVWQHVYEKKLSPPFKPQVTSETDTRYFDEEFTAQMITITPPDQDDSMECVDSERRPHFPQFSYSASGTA

The structures appear in SMILES notation. For some of these results: What follows is the remainder of the data, with few or none of the strong results. Only a part is listed here, and it is no random draw.

Assay [1] has as its target Epidermal growth factor receptor (Homo sapiens) (UniProt P00533). As to conditions: at 1 µM.
For assay [2] the target is unchanged. As to conditions: at 10 µM.
In assay [3] the target is T1, Eukaryotic elongation factor 2 kinase (Homo sapiens) (UniProt O00418).
T1 sequence (whole entry): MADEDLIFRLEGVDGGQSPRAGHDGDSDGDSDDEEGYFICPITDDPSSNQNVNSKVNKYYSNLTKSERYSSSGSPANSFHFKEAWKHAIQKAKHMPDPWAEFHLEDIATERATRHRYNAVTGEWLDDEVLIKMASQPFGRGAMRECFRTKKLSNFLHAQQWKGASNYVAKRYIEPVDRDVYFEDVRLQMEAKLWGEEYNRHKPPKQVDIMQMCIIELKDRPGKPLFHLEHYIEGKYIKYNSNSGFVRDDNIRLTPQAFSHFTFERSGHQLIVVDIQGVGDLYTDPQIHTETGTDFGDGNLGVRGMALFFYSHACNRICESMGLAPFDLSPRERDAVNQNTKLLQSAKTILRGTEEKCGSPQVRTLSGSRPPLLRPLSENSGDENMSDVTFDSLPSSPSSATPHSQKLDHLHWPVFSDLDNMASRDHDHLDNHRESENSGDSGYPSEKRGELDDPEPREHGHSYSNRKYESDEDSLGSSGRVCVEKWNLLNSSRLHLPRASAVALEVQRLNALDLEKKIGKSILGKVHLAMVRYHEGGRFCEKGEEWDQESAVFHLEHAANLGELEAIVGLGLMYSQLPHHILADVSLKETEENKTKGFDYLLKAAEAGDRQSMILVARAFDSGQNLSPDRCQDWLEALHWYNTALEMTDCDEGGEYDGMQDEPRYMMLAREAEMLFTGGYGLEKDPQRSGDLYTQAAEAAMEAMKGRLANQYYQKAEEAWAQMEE
As to conditions: at 1 µM.

For assay [4], the target named is T1, Eukaryotic elongation factor 2 kinase (Homo sapiens). As to conditions: at 10 µM.
The target in assay [5] is Tyrosine-protein kinase BTK (Homo sapiens) (UniProt Q06187). The following applies: at 1 µM.
The target of assay [6] is CDK3/cyclin E (Homo sapiens) (UniProt P24864+O96020+Q00526). As to conditions: at 1 µM.
Assay [7] concerns the target Tyrosine-protein kinase CSK (Homo sapiens) (UniProt P41240). As to conditions: at 10 µM.
The target of assay [8] is Ephrin type-A receptor 5 (Homo sapiens) (UniProt P54756). The following applies: at 1 µM.
Assay [9] concerns the target Receptor tyrosine-protein kinase erbB-4 (Homo sapiens) (UniProt Q15303). The following applies: at 1 µM.
For assay [10] the target is unchanged. As to conditions: at 10 µM.
Assay [11] concerns the target Fibroblast growth factor receptor 4 (Homo sapiens) (UniProt P22455). The following applies: at 1 µM.
Assay [12] addresses Glycogen synthase kinase-3 alpha (Homo sapiens) (UniProt P49840). As to conditions: at 10 µM.
In assay [13] the target is Protein kinase C eta type (Homo sapiens) (UniProt P24723). The following applies: at 1 µM.
The target in assay [14] is Serine/threonine-protein kinase pim-1 (Homo sapiens) (UniProt P11309). The following applies: at 1 µM.
The target of assay [15] is Rho-associated protein kinase 1 (Homo sapiens) (UniProt Q13464). As to conditions: at 10 µM.
Assay [16] deals with Macrophage-stimulating protein receptor (Homo sapiens) (UniProt Q04912). As to conditions: at 1 µM.
Assay [17] has as its target Proto-oncogene tyrosine-protein kinase ROS (Homo sapiens) (UniProt P08922). As to conditions: at 10 µM.
Assay [18] has as its target Mitogen-activated protein kinase 11 (Homo sapiens) (UniProt Q15759). As to conditions: at 1 µM.
Assay [19] addresses Mitogen-activated protein kinase 12 (Homo sapiens) (UniProt P53778). The following applies: at 1 µM.
The target in assay [20] is Mitogen-activated protein kinase 13 (Homo sapiens) (UniProt O15264). As to conditions: at 10 µM.
The target of assay [21] is SRSF protein kinase 1 (Homo sapiens) (UniProt Q96SB4). The following applies: at 1 µM.
The target of assay [22] is TGF-beta receptor type-1 (Homo sapiens) (UniProt P36897). The following applies: at 1 µM.
The target in assay [23] is Inhibitor of nuclear factor kappa-B kinase subunit alpha (Homo sapiens) (UniProt O15111). The following applies: at 1 µM.
Assay [24] addresses Mitogen-activated protein kinase 9 (Homo sapiens) (UniProt P45984). The following applies: at 1 µM.
The target of assay [25] is MAP kinase-activated protein kinase 3 (Homo sapiens) (UniProt Q16644). The following applies: at 1 µM.
For assay [26] the target is unchanged. As to conditions: at 10 µM.
For assay [27], the target named is Dual specificity mitogen-activated protein kinase kinase 7 (Homo sapiens) (UniProt O14733). The following applies: at 1 µM.
Assay [28] deals with Serine/threonine-protein kinase MRCK alpha (Homo sapiens) (UniProt Q5VT25). The following applies: at 10 µM.
In assay [29] the target is Serine/threonine-protein kinase VRK2 (Homo sapiens) (UniProt Q86Y07). As to conditions: at 10 µM.
Assay [30] has as its target Serine/threonine-protein kinase WNK2 (Homo sapiens) (UniProt Q9Y3S1). The following applies: at 1 µM.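 Also: residual WNK2 kinase activity expressed as percent of uninhibited control, assayed in MOPS buffer at pH 7.0 containing EDTA.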
Assay [31] addresses Serine/threonine-protein kinase mTOR (Homo sapiens) (UniProt P42345). As to conditions: at 1 µM.
For assay [32], the target named is Serine/threonine-protein kinase Nek7 (Homo sapiens) (UniProt Q8TDX7). The following applies: at 1 µM.
For assay [33] the target is unchanged. The following applies: at 10 µM.
Assay [34] addresses RAC-alpha serine/threonine-protein kinase (Homo sapiens) (UniProt P31749). The following applies: at 10 µM.
Assay [35] concerns the target Protein kinase C alpha type (Homo sapiens) (UniProt P17252). The following applies: at 10 µM.
In assay [36] the target is Protein kinase C gamma type (Homo sapiens) (UniProt P05129). The following applies: at 1 µM.

Take `CCCCc1c(-c2ccc(OC)cc2)[nH]c2nccnc12`: the results for the residual activity in [1], in assay [2] and in assay [3] were 105%, 106% and inactive: 112%, respectively.
For the molecule `Cc1ccc(NC2=CC(=O)c3sc(C)nc3C2=O)cc1`, the residual activity in assay [1] is 105%; in assay [2] it was 118%; in [3], inactive: 100%; in [4], 76%.
As for `COc1ccc2c(c1)c(C1=C(c3c[nH]c4ccccc34)C(=O)NC1=O)cn2CCCN(C)C`, the residual activity in [1] is 82%.
In the case of `COc1cc2ncnc(Nc3ccc(O)c(Br)c3)c2cc1OC`, the residual activity in assay [1] is -4%; in [2], -3%; in assay [3], inactive: 96%; in assay [4], 110%.
Take `Nc1nc(Nc2ccc(S(N)(=O)=O)cc2)nn1C(=O)c1c(F)cccc1F`: the residual activity in assay [1] was determined as 105%; in assay [2], 98%.
For `CCN(CC)CCNC(=O)c1c(C)[nH]c(/C=C2\C(=O)Nc3ccc(Cl)cc32)c1C`, the residual activity came out at 83% in assay [5]; 87% in assay [6]; 84% in assay [7]; 107% in [1]; 109% in assay [8]; 86% in [9]. Besides, the residual activity in assay [10] was 104%; in [11] it was 101%; in assay [12] it was 84%; in [13], 110%; in [14], 85%; in [15], 90%. The residual activity in assay [16] worked out at 91%; in [17] it was 87%; in assay [18], 95%; in assay [19], 108%; in [20], 88%; in assay [21] it was 112%. The residual activity in [22] is 101%; in assay [23], 93%; in [24], 111%; in assay [25] it was 108%; in assay [26], 106%; in [27], 92%. For the same molecule, the residual activity is 113% in [28]; 86% in assay [29]; inactive: 105% in [30]; inactive: 105% in assay [3]; 85% in assay [4]; 102% in [31]. The residual activity was inactive: 102% in assay [32]; inactive: 109% in [33]; 103% in assay [34]; 83% in assay [35]; 94% in [36].
